Measurements reported in US20060165769A1, “Pharmaceutical formulations containing vitamin E TPGS molecules that solubilize lipophilic drugs without significant efflux inhibition, and use of such formulations” (priority 2004, published 2006).

Legend:
[1] = tested on: Caco-2 monolayers (efflux transport of Rhodamine 123); assay: Inhibition Protocol: Rhodamine 123 transport across Caco-2 monolayers in the presence of TPGS analog; format: cell-based
Description: As used herein, the term “Inhibition Protocol” or “inhibition protocol” refers to the following test. The test is carried out using Caco-2 (C2BBe1 or HTB-37) monolayers which are known to be a good in vitro model for gastrointestinal epithelial cells. The following describes the inhibition protocol: Caco-2 cells, clone C2BBe1, from passages 48-92 are used. Cells are grown to ˜90% confluent in 75 cm^2 T-flasks with Dulbecco's modified Eagle's medium (DMEM) supplemented with 10% fetal bovine serum (FBS) and 1% non-essential amino-acids. Cells are grown at a temperature of ˜37° C. in an atmosphere of ˜85% relative humidity and ˜5% CO2. Cells are seeded on top of Transwell® inserts (pore size 0.4 μm, 1.13 cm^2) at a density of ˜60,000 cells/cm^2. […]
Rhodamine 123 (RHO) transport is assessed in absorptive (apical to basolateral, Ap→BI) and secretory (BI→Ap) directions. […]
Monolayers are agitated using an orbital shaker at ˜100±20 rpm. […] To ensure integrity of the monolayers, TEER values were measured on the day of the experiment and at the end of the experiment.
Apparent permeability (Papp) was calculated according to: Papp=(dQ/dt)*(1/A)*(1/Co)
where A (cm^2) is the nominal surface area of the monolayer and C0 (μg/mL) is the RHO concentration in the donor compartment at t=0. Relative change of Papp(cm/s)was calculated according to the equation: rel. increase/decrease=|(1−Papp(TPGS)/Papp(RHO))*100|. […]

[2] = Critical micellar concentration in water by surface tension; format: physicochemical; conditions: inflection point of surface tension vs concentration
Description: A series of TPGS analogs were synthesized by methods similar to those used to synthesize TPGS 1000, differing only in the molecular weight of the polyethylene glycol (PEG) chain. Solutions were prepared of various known concentrations of these derivatives in water. Surface tension of these solutions were measured, and plotted against the concentration of the TPGS. […] The concentration at this inflection point is defined as the critical micellar concentration (CMC) of the particular TPGS in water. The following is a table of the measured CMC's versus the molecular weight of the PEG chain.

## d-α-tocopheryl polyethylene glycol succinate [TPGS 1000]
[1]; Inhibition Protocol, 33 μM
  Inhibition of efflux transport of Rhodamine 123 in Caco-2 monolayers (in words): effectively inhibited efflux transport
[1]; Rhodamine 123 efflux ratio, TPGS analog 33 μmolar, control 17.9
  Ratio, Papp(B − A)/Papp(A − B): 2.58
[2]
  CMC: 0.02 ± 0.02 Wt. %
